“And” between values parts separate entries of the source, which are not always exact repeats. Equal values may be shown once. Read-outs that look alike come from different tables or passages of the source.
How the values were obtained:
Concanavalin A (ConA) [1] = molecular target: T1, Concanavalin A (ConA) (Canavalia ensiformis, UniProt P02866); test: Glycan microarray incubated with biotinylated ConA, Cy3-streptavidin fluorescence detection; conditions: spotted at 50 μM; 100 ng/ml (0.943 nM) biotinylated ConA; Cy3-labelled streptavidin
Concanavalin A (ConA) [2] = molecular target: T1, Concanavalin A (ConA); conditions: read-out: KD, surf

SMILES | interaction with ConA (spot fluorescence intensity, qualitative) (Concanavalin A (ConA) [1]) | Kd (Concanavalin A (ConA) [2]) | Kd (Concanavalin A (ConA) [2]; glycomimetic printed at 10 μM, ConA 47.2 pM to 469.3 nM, KD,surf obtained as EC50 of sigmoidal fit) [nM] | Kd (Concanavalin A (ConA) [2]; glycomimetic printed at 50 μM, ConA 47.2 pM to 469.3 nM, KD,surf obtained as EC50 of sigmoidal fit) [nM]
CCCCC(CC)CNC(=O)C1CC(OCCN=[N+]=[N-])C(O[C@H]2O[C@H](CO)[C@@H](O)[C@H](O)[C@@H]2O)CC1C(=O)NCC(CC)CCCC (some centres unmarked) | does not seem to interact | 5.33 nM |  | 
[N-]=[N+]=NCCOC1CC(C(=O)NCc2ccc(CO)cc2)C(C(=O)NCc2ccc(CO)cc2)CC1O[C@H]1O[C@H](CO)[C@@H](O)[C@H](O)[C@@H]1O (some centres unmarked) |  | 0.43 nM and 0.75 nM |  | 
[N-]=[N+]=NCCOC1CC(C(=O)NCc2ccccc2)C(C(=O)NCc2ccccc2)CC1O[C@H]1O[C@H](CO)[C@@H](O)[C@H](O)[C@@H]1O (some centres unmarked) |  |  | 1.01 | 0.26

Reference: US20160200847A1, “CLICKABLE POLYMERS AND GELS FOR MICROARRAY AND OTHER APPLICATIONS” (priority 2014, published 2016)
